Experimental data from paper PMC3663048 (Journal of medicinal chemistry, 2011).

Experiments:
[1] = test system: monastrol-arrested A549 cells; test: Mitotic exit of monastrol-arrested A549 cells; type: cell-based, human; settings: 5 μM, 45 min
A549 cells = settings: 5 μM for 30 min, release from 19 into MG132 for 1 h

SMILES: C#CC(=O)Nc1ccc2c(c1)/C(=C/c1[nH]c(CC)nc1C)C(=O)N2 [compound 16, (Z)-N-(3-((2-ethyl-4-methyl-1H-imidazol-5-yl)methylene)-2-oxoindolin-5-yl)propiolamide]
- Phospho-Ser10 histone H3 staining (mitotic marker) [1]: stained brightly
- Defects in bipolar spindle assembly or chromosome congression (A549 cells): no defects
